Target: human NK2 receptor (Homo sapiens, UniProt P21452)
Experiment: Equilibrium-competition binding of 3H-NKA to MELM (receptor characterisation)

The chains behind the UniProt entries cited, without tags or fusion partners.
UniProt P21452, whole entry: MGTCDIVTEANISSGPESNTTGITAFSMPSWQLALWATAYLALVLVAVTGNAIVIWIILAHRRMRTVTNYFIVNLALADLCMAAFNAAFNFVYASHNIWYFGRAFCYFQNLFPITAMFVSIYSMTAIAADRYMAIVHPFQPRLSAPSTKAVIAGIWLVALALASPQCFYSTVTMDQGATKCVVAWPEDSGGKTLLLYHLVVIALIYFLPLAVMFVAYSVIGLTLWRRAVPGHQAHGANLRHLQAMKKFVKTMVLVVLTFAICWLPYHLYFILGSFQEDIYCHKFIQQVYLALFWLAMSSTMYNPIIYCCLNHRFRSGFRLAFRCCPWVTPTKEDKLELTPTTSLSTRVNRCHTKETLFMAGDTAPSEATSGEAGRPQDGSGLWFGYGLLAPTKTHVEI

specific binding of 3H-NKA to MELM (3H-NKA 2.5 nM): 88±4% | Bmax of 3H-NKA binding (MELM, equilibrium-competition): 2229 fmol/mg protein
Substance: [4,5-^3 H-Leu^9 ]-NKA [Example 3H-NKA]

Source: US5654299A, “Aryl substituted heterocycles” (Zeneca Limited, priority 1993, dated 1997)
